According to patent US7427598B2, “Post-natal administration of activity-dependent neurotrophic factor-derived polypeptides for enhancing learning and memory” (The United States of Americas as represented by the …, priority 2001, dated 2008):

Test system: choline acetyl transferase activity
Test: Choline acetyl transferase activity in brain extracts of AF64A-treated rats
Assay type: in vivo, rat
Conditions: AF64A-treated vs sham-treated controls, three animals per group

**Q.** ethylcholine aziridium was tested. Which “Reduction in choline acetyl transferase activity” value did it give?
**A.** Its value is 11+2.6%.
